Tests used:
[1] = molecular target: endogenously expressed human MSR1 on PMA-treated THP-1 cells (human) (UniProt P21757); test: cell-based or functional assay
[2] = molecular target: endogenously expressed human MSR1 on PMA-treated THP-1 cells (human) (UniProt P21757); test: ECL cell binding, PMA-treated THP-1 cells, 11 nM
[3] = molecular target: endogenously expressed human MSR1 on PMA-treated THP-1 cells (human) (UniProt P21757); test: confocal imaging, differentiated THP-1 cells, Alexa 488 secondary

Sequences of proteins named here, by UniProt entry; tags and fusion partners are left off. A change or cut given only in a name is not applied to a line headed by its entry.
UniProt P21757: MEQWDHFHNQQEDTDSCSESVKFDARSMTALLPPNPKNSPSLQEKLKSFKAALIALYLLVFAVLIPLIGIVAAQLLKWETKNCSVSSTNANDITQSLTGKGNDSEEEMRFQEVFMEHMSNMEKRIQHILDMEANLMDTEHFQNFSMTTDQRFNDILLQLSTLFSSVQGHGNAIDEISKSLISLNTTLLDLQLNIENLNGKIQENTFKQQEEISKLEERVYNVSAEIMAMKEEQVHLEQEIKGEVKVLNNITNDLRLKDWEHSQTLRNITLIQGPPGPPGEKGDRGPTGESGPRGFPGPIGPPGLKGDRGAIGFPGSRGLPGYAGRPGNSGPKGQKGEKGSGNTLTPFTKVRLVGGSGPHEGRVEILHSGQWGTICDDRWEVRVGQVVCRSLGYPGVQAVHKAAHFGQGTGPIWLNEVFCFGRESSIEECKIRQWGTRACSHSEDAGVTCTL

- % Internalization [1]: 84.9%
- Total Internalized RFU [1]: 6.79e+06 RFU
- ratio of binding signal (RLU) to isotype control [2]: 54 fold
- Total Binding at 4° C. (RFU) [3]: 5.83e+06 RFU
- Total Binding at 37° C. (RFU) [3]: 8e+06 RFU
B1: H1H27751P-N297Q (antibody, human IgG1, V domains shown)
VH: EVQLVESGGGLVQPGGSLRLSCAASGFTFSNYAMHWVRQAPGKGLEYVSAISSNGGSTYYADSVKGRITISRDNSKNTLYLQMGSLRAEDMAVYYCARGRPYYYYFGMDVWGQGTTVTVSS
VL: DIVMTQTPVSSPVTLGQPASISCRSSQSLVHSDGNTYLSWFQQRPGQPPRLLIYKISNRFSGVPDRFSGSGAGTDFTLKISRVEAEDVGVYYCMQATQFPLNFGGGTKVEIKR
